# Measurements taken from paper PMC9569420 (Communications Biology, 2022).
# Amino acid sequences for entries named in this document (tags omitted). A change or cut given only in a name is not applied to a line headed by its entry. Residues count along the entry.
# UniProt P36894, 24-532: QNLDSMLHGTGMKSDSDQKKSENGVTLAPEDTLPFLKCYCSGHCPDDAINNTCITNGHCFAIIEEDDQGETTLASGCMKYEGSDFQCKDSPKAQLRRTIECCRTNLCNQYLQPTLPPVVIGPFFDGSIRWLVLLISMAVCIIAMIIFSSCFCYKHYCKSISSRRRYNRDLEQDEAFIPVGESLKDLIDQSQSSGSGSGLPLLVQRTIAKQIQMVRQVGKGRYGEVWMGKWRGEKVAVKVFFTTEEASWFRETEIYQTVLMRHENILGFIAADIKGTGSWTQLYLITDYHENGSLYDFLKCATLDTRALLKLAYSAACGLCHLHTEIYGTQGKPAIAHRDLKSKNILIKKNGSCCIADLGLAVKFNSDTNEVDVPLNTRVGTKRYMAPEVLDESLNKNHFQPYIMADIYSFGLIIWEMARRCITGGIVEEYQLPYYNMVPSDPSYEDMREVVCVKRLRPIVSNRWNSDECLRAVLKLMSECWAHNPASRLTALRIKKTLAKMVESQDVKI
# UniProt Q9UIK4: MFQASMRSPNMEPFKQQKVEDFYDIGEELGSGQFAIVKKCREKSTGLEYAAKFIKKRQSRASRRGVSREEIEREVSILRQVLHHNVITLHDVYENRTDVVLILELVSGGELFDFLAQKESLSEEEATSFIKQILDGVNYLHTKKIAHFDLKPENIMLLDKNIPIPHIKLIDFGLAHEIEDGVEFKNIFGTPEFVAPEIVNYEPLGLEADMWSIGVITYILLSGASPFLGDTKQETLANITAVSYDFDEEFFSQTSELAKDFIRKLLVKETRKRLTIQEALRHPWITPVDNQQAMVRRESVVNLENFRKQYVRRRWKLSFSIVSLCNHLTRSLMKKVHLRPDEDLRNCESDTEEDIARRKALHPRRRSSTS
# UniProt O43293: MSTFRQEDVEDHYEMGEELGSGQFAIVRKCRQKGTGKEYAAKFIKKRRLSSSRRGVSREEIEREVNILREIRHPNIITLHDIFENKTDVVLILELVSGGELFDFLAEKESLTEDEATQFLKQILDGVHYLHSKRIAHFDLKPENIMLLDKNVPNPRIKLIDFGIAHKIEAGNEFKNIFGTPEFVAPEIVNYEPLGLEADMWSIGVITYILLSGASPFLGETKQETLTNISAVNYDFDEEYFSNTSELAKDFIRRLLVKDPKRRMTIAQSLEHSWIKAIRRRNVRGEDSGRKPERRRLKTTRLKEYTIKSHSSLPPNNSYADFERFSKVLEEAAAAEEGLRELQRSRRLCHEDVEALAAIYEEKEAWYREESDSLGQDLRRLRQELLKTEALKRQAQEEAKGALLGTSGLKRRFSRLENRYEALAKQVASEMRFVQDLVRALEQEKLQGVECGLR
# UniProt Q96NX5: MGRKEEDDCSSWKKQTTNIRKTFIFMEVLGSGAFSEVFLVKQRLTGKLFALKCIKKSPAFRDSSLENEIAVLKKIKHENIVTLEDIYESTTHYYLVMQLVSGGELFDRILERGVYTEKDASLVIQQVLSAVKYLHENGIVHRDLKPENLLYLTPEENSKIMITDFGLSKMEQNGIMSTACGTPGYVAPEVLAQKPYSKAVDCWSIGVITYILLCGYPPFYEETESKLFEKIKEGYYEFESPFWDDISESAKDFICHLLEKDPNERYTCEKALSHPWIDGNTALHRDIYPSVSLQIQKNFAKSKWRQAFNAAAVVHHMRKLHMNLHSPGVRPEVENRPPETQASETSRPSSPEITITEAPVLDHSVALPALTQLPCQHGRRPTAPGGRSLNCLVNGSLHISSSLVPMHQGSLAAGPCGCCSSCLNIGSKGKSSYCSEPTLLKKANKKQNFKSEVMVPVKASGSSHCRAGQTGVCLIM
# UniProt Q15375, 28-998: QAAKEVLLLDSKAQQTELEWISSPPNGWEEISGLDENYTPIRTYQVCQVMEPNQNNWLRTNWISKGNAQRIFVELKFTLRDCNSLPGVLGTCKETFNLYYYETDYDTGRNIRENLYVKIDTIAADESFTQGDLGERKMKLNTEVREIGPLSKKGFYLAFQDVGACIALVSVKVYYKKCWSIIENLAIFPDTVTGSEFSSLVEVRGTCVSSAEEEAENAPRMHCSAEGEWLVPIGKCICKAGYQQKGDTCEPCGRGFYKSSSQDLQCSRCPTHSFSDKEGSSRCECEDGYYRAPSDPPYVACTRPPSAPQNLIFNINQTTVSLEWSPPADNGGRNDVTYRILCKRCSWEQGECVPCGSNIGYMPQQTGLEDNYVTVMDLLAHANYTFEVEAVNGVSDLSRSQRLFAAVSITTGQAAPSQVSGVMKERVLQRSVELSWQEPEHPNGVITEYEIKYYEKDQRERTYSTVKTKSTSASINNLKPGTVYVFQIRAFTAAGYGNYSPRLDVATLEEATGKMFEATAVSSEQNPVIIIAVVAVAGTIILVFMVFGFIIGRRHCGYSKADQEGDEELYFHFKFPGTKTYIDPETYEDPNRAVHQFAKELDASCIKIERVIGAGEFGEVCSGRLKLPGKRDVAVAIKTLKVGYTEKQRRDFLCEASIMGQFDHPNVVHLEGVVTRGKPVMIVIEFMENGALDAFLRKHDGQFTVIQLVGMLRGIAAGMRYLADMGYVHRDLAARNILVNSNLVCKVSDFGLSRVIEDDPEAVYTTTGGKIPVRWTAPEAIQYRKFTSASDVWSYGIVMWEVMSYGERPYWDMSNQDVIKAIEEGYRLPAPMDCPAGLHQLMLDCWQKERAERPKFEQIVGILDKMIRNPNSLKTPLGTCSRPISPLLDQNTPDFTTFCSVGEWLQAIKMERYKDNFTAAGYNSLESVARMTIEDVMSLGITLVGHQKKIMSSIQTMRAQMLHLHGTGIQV
# UniProt Q9HC98: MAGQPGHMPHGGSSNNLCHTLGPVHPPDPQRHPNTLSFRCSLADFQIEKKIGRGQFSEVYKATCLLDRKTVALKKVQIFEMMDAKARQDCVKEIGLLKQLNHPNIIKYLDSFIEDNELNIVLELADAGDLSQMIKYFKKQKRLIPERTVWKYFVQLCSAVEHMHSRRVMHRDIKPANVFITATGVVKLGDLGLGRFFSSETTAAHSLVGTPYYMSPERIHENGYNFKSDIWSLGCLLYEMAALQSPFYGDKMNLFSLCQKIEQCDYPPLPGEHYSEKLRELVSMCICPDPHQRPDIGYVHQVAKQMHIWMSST
# UniProt P53779: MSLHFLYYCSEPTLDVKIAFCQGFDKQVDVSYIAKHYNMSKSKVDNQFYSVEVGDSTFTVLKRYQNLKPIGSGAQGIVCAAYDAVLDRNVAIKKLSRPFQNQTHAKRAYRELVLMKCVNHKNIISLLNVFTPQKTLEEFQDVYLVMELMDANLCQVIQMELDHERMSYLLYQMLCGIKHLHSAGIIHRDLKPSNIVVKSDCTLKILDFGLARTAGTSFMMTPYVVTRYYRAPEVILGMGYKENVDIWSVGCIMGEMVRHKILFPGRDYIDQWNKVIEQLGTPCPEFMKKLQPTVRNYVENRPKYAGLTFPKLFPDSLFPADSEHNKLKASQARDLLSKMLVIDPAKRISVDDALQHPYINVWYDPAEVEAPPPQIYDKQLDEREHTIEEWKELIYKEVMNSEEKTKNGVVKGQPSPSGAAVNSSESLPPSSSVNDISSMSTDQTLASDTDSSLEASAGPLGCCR
# UniProt Q9BZL6: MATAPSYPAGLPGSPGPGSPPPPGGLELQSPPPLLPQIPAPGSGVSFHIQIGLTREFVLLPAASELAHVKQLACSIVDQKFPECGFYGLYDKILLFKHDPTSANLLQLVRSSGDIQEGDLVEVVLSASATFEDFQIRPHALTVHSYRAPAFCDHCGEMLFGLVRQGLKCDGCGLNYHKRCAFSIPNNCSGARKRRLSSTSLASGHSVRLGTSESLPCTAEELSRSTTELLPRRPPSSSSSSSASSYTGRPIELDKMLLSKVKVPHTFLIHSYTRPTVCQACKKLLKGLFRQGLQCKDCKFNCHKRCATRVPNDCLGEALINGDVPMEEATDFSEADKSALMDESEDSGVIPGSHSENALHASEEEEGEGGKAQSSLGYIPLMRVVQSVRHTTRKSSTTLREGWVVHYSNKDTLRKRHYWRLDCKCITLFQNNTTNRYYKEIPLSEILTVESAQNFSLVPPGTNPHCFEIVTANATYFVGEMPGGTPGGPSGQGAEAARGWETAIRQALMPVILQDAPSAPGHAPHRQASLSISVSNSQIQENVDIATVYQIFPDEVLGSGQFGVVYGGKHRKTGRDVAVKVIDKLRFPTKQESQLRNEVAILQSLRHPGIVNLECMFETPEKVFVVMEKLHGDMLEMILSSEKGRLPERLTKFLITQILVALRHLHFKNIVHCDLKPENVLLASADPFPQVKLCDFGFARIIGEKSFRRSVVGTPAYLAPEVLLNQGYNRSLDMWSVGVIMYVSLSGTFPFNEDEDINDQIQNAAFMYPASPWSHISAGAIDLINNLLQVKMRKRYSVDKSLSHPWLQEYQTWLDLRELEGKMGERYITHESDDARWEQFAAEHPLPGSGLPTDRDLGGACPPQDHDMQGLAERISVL
# UniProt P45983: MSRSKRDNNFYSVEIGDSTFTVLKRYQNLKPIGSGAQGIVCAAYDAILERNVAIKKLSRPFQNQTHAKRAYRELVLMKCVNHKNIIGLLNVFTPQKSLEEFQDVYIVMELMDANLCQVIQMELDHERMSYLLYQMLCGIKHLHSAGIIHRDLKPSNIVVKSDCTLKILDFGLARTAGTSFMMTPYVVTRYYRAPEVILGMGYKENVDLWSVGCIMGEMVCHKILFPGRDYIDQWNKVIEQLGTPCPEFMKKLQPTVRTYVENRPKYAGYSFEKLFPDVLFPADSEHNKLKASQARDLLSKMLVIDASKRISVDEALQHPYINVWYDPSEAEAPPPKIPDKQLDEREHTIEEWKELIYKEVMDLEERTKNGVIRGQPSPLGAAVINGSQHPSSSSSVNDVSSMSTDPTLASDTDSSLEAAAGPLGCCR
# UniProt Q08881: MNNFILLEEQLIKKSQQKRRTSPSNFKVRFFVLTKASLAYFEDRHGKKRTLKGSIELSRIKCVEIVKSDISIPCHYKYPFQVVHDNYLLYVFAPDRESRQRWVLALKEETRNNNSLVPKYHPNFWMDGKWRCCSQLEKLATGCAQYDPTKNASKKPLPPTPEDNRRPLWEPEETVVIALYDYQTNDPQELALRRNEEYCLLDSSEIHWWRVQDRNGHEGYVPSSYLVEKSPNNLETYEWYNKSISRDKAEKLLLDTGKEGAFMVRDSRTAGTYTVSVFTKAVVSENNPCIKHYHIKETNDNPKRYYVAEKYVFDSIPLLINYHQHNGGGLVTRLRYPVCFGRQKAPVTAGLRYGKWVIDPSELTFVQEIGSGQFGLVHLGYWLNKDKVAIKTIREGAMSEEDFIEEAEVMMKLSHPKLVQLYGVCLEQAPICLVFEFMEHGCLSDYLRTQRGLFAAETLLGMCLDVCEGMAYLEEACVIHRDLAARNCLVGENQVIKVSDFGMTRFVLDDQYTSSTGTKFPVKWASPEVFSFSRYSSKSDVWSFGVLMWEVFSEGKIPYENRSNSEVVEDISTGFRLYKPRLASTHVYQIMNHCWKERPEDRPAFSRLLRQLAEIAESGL
# UniProt P16591: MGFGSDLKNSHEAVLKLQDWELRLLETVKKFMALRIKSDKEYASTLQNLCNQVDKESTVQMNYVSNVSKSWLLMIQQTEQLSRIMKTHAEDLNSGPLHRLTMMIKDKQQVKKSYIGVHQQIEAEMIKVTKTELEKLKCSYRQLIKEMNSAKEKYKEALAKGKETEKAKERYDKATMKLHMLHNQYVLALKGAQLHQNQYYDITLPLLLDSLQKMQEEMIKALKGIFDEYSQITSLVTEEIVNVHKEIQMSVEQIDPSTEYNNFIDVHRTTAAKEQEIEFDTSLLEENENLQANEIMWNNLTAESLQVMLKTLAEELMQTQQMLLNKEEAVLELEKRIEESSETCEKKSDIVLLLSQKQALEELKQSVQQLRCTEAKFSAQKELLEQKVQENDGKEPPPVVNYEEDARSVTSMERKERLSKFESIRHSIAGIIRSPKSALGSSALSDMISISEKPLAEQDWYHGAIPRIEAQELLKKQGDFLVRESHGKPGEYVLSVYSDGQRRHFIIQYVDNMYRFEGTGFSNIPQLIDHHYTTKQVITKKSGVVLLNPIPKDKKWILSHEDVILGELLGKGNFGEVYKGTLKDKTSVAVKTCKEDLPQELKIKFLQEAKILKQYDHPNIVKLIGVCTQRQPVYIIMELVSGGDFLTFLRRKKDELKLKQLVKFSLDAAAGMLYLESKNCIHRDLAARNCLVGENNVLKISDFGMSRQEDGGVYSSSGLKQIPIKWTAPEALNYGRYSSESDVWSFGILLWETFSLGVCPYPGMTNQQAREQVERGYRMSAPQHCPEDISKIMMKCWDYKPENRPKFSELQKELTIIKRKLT
# Values joined by “and” are separate entries in the source; they are usually repeats but may differ in a detail not shown here. Equal values may be shown once.
# Columns and labels:
# [1] = target: T1, DAPK1 (Homo sapiens, UniProt P53355); assay: HotSpot kinase assay; assay type: biochemical; details: 10µM
# T1 construct: purchased Reaction Biology Corporation
# [2] = target: T2, CDK1/cyclin A (Homo sapiens, UniProt P06493); assay: HotSpot kinase assay; assay type: biochemical; details: 10µM
# T2 construct: purchased Reaction Biology Corporation
# [3] = target: T3, ALK3/BMPR1A (Homo sapiens, UniProt P36894); assay: HotSpot kinase assay; assay type: biochemical; details: 10µM
# T3 construct: purchased Reaction Biology Corporation
# [4] = target: T4, DAPK2 (Homo sapiens, UniProt Q9UIK4); assay: HotSpot kinase assay; assay type: biochemical; details: 10µM
# T4 construct: purchased Reaction Biology Corporation
# [5] = target: T5, LYN B (Homo sapiens, UniProt P07948); assay: HotSpot kinase assay; assay type: biochemical; details: 10µM
# T5 construct: purchased Reaction Biology Corporation
# [6] = target: T6, TTBK2 (Homo sapiens, UniProt Q6IQ55); assay: HotSpot kinase assay; assay type: biochemical; details: 10µM
# T6 construct: purchased Reaction Biology Corporation
# [7] = target: T7, ZIPK/DAPK3 (Homo sapiens, UniProt O43293); assay: HotSpot kinase assay; assay type: biochemical; details: 10µM
# T7 construct: purchased Reaction Biology Corporation
# [8] = target: T8, AMPK (A1/B2/G2) (Homo sapiens, UniProt Q13131); assay: HotSpot kinase assay; assay type: biochemical; details: 10µM
# T8 construct: purchased Reaction Biology Corporation
# [9] = target: T9, TAOK3/JIK (Homo sapiens, UniProt Q9H2K8); assay: HotSpot kinase assay; assay type: biochemical; details: 10µM
# T9 construct: purchased Reaction Biology Corporation
# [10] = target: T10, CAMK1g (Homo sapiens, UniProt Q96NX5); assay: HotSpot kinase assay; assay type: biochemical; details: 10µM
# T10 construct: purchased Reaction Biology Corporation
# [11] = target: T11, AMPK(A1/B1/G2) (Homo sapiens, UniProt Q13131); assay: HotSpot kinase assay; assay type: biochemical; details: 10µM
# T11 construct: purchased Reaction Biology Corporation
# [12] = target: T12, FAK/PTK2 (Homo sapiens, UniProt Q05397); assay: HotSpot kinase assay; assay type: biochemical; details: 10µM
# T12 construct: purchased Reaction Biology Corporation
# [13] = target: T13, JNK2 (Homo sapiens, UniProt P45984); assay: HotSpot kinase assay; assay type: biochemical; details: 10µM
# T13 construct: purchased Reaction Biology Corporation
# [14] = target: T14, EPHA4 (Homo sapiens, UniProt P54764); assay: HotSpot kinase assay; assay type: biochemical; details: 10µM
# T14 construct: purchased Reaction Biology Corporation
# [15] = target: T15, CK2a (Homo sapiens, UniProt P68400); assay: HotSpot kinase assay; assay type: biochemical; details: 10µM
# T15 construct: purchased Reaction Biology Corporation
# [16] = target: T16, EPHA7 (Homo sapiens, UniProt Q15375); assay: HotSpot kinase assay; assay type: biochemical; details: 10µM
# T16 construct: purchased Reaction Biology Corporation
# [17] = target: T17, SGK1 (Homo sapiens, UniProt O00141); assay: HotSpot kinase assay; assay type: biochemical; details: 10µM
# T17 construct: purchased Reaction Biology Corporation
# [18] = target: T18, ROCK2 (Homo sapiens, UniProt O75116); assay: HotSpot kinase assay; assay type: biochemical; details: 10µM
# T18 construct: purchased Reaction Biology Corporation
# [19] = target: T19, MYO3A (Homo sapiens, UniProt Q8NEV4); assay: HotSpot kinase assay; assay type: biochemical; details: 10µM
# T19 construct: purchased Reaction Biology Corporation
# [20] = target: T20, ZAP70 (Homo sapiens, UniProt P43403); assay: HotSpot kinase assay; assay type: biochemical; details: 10µM
# T20 construct: purchased Reaction Biology Corporation
# [21] = target: T21, NEK6 (Homo sapiens, UniProt Q9HC98); assay: HotSpot kinase assay; assay type: biochemical; details: 10µM
# T21 construct: purchased Reaction Biology Corporation
# [22] = target: T22, AKT3 (Homo sapiens, UniProt Q9Y243); assay type: biochemical; details: 10µM
# T22 construct: purchased Reaction Biology Corporation
# [23] = target: T23, MST4 (Homo sapiens, UniProt Q9P289); assay: HotSpot kinase assay; assay type: biochemical; details: 10µM
# T23 construct: purchased Reaction Biology Corporation
# [24] = target: T24, GCK/MAP4K2 (Homo sapiens, UniProt Q12851); assay: HotSpot kinase assay; assay type: biochemical; details: 10µM
# T24 construct: purchased Reaction Biology Corporation
# [25] = target: T25, EPHA5 (Homo sapiens, UniProt P54756); assay: HotSpot kinase assay; assay type: biochemical; details: 10µM
# T25 construct: purchased Reaction Biology Corporation
# [26] = target: T26, JNK3 (Homo sapiens, UniProt P53779); assay: HotSpot kinase assay; assay type: biochemical; details: 10µM
# T26 construct: purchased Reaction Biology Corporation
# [27] = target: T27, WNK3 (Homo sapiens, UniProt Q9BYP7); assay: HotSpot kinase assay; assay type: biochemical; details: 10µM
# T27 construct: purchased Reaction Biology Corporation
# [28] = target: T28, SIK1 (Homo sapiens, UniProt P57059); assay: HotSpot kinase assay; assay type: biochemical; details: 10µM
# T28 construct: purchased Reaction Biology Corporation
# [29] = target: T29, LIMK2 (Homo sapiens, UniProt P53671); assay: HotSpot kinase assay; assay type: biochemical; details: 10µM
# T29 construct: purchased Reaction Biology Corporation
# [30] = target: T30, PKD2/PRKD2 (Homo sapiens, UniProt Q9BZL6); assay: HotSpot kinase assay; assay type: biochemical; details: 10µM
# T30 construct: purchased Reaction Biology Corporation
# [31] = target: T31, JNK1 (Homo sapiens, UniProt P45983); assay: HotSpot kinase assay; assay type: biochemical; details: 10µM
# T31 construct: purchased Reaction Biology Corporation
# [32] = target: T32, CAMK1d (Homo sapiens, UniProt Q8IU85); assay: HotSpot kinase assay; assay type: biochemical; details: 10µM
# T32 construct: purchased Reaction Biology Corporation
# [33] = target: MST3/STK24 (Homo sapiens, UniProt Q9Y6E0); assay: HotSpot kinase assay; details: 10µM
# [34] = target: T33, PRKX (Homo sapiens, UniProt P51817); assay: HotSpot kinase assay; assay type: biochemical; details: 10µM
# T33 construct: purchased Reaction Biology Corporation
# [35] = test system: HSV-2(G); assay: HSV plaque assay, HaCat cells; assay type: cell-based
# [36] = target: T34, TGFBR2 (Homo sapiens, UniProt P37173); assay: HotSpot kinase assay; assay type: biochemical; details: 10µM
# T34 construct: purchased Reaction Biology Corporation
# [37] = target: T35, ABL2/ARG (Homo sapiens, UniProt P42684); assay: HotSpot kinase assay; assay type: biochemical; details: 10µM
# T35 construct: purchased Reaction Biology Corporation
# [38] = target: T36, CLK1 (Homo sapiens, UniProt P49759); assay: HotSpot kinase assay; assay type: biochemical; details: 10µM
# T36 construct: purchased Reaction Biology Corporation
# [39] = target: T37, ITK (Homo sapiens, UniProt Q08881); assay: HotSpot kinase assay; assay type: biochemical; details: 10µM
# T37 construct: purchased Reaction Biology Corporation
# [40] = target: T38, SRPK1 (Homo sapiens, UniProt Q96SB4); assay: HotSpot kinase assay; assay type: biochemical; details: 10µM
# T38 construct: purchased Reaction Biology Corporation
# [41] = target: T39, FER (Homo sapiens, UniProt P16591); assay: HotSpot kinase assay; assay type: biochemical; details: 10µM
# T39 construct: purchased Reaction Biology Corporation
# [42] = target: T40, TRKC (Homo sapiens, UniProt Q16288); assay: HotSpot kinase assay; assay type: biochemical; details: 10µM
# T40 construct: purchased Reaction Biology Corporation
# [43] = target: T41, MARK3 (Homo sapiens, UniProt P27448); assay: HotSpot kinase assay; assay type: biochemical; details: 10µM
# T41 construct: purchased Reaction Biology Corporation
compound,measurement,setting,value
CO[C@@H]1[C@H](N(C)C(=O)CCC(=O)NCc2cn(CCCS(=O)(=O)O)nn2)C[C@H]2O[C@]1(C)n1c3ccccc3c3c4c(c5c6ccccc6n2c5c31)C(=O)NC4 [CIMSS],% Enzyme Activity (relative to DMSO controls),[1],13.55%
same,% Enzyme Activity (relative to DMSO controls),[2],18.54%
same,% Enzyme Activity (relative to DMSO controls),[3],79.43%
same,% Enzyme Activity (relative to DMSO controls),[4],10.10%
same,% Enzyme Activity (relative to DMSO controls),[5],2.48%
same,% Enzyme Activity (relative to DMSO controls),[6],94.91%
same,% Enzyme Activity (relative to DMSO controls),[7],5.05%
same,% Enzyme Activity (relative to DMSO controls),[8],-0.06% and -0.34%
same,% Enzyme Activity (relative to DMSO controls),[9],12.63%
same,% Enzyme Activity (relative to DMSO controls),[10],8.82%
same,% Enzyme Activity (relative to DMSO controls),[11],1.23%
same,% Enzyme Activity (relative to DMSO controls),[12],13.59%
same,% Enzyme Activity (relative to DMSO controls),[13],41.78%
same,% Enzyme Activity (relative to DMSO controls),[14],28.44%
same,% Enzyme Activity (relative to DMSO controls),[15],70.67%
same,% Enzyme Activity (relative to DMSO controls),[16],6.08%
same,% Enzyme Activity (relative to DMSO controls),[17],12.71%
same,% Enzyme Activity (relative to DMSO controls),[18],12.53%
same,% Enzyme Activity (relative to DMSO controls),[19],5.96%
same,% Enzyme Activity (relative to DMSO controls),[20],12.64%
same,% Enzyme Activity (relative to DMSO controls),[21],87.72%
same,% Enzyme Activity (relative to DMSO controls),[22],9.86%
same,% Enzyme Activity (relative to DMSO controls),[23],1.22%
same,% Enzyme Activity (relative to DMSO controls),[24],4.56%
same,% Enzyme Activity (relative to DMSO controls),[25],52.25%
same,% Enzyme Activity (relative to DMSO controls),[26],23.39%
same,% Enzyme Activity (relative to DMSO controls),[27],64.44%
same,% Enzyme Activity (relative to DMSO controls),[28],0.64%
same,% Enzyme Activity (relative to DMSO controls),[29],66.53%
same,% Enzyme Activity (relative to DMSO controls),[30],11.75%
same,% Enzyme Activity (relative to DMSO controls),[31],24.80%
same,% Enzyme Activity (relative to DMSO controls),[32],19.69%
same,% Enzyme Activity (relative to DMSO controls),[33],15.83%
same,% Enzyme Activity (relative to DMSO controls),[34],9.38%
same,viral plaque numbers relative to the DMSO controls,"[35]; dose 0.1, replicates (Fig 3a source data)",74% and 73.4% and 64% and 57%
same,viral plaque numbers relative to the DMSO controls,"[35]; dose 1, replicates (Fig 3a source data)",70% and 69% and 45% and 52%
same,viral plaque numbers relative to the DMSO controls,"[35]; dose 10, replicates (Fig 3a source data)",26.8% and 30.9% and 10% and 14.36%
same,viral plaque numbers relative to the DMSO controls,"[35]; dose 50, replicates (Fig 3a source data)",30.9% and 30.2% and 14% and 25%
same,% Enzyme Activity (relative to DMSO controls),[36],108.40%
same,% Enzyme Activity (relative to DMSO controls),[37],3.90%
same,% Enzyme Activity (relative to DMSO controls),[38],3.79%
same,% Enzyme Activity (relative to DMSO controls),[39],3.38%
same,% Enzyme Activity (relative to DMSO controls),[40],8.28%
same,% Enzyme Activity (relative to DMSO controls),[41],0.26%
same,% Enzyme Activity (relative to DMSO controls),[42],0.18%
same,% Enzyme Activity (relative to DMSO controls),[43],1.76%
